Measurements: article doi:10.1101/2020.11.09.375162v1 (biorxiv, 2020)
pEC50: −log10 of the molar value. Like-named read-outs stand apart in the source and are kept apart here.

Protein sequences, listed by entry. Tags and fused reporters are not part of them.
UniProt P34972, whole entry: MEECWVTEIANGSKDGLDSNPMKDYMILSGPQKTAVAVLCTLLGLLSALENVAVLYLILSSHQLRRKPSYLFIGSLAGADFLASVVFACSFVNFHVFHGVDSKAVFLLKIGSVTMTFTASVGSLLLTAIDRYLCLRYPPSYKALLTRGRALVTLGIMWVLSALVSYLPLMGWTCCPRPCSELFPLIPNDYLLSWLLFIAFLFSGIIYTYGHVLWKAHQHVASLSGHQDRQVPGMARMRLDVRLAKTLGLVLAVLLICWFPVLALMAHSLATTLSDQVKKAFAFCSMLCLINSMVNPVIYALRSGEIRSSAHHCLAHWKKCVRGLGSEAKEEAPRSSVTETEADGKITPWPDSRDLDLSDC

Columns and labels:
Assay in all cases: cell-based
[1] = target: T1, human CB2 receptor (hCB2) (Homo sapiens, UniProt P34972)
[2] = target: T1, human CB2 receptor (hCB2); remark: listed apart in the source
[3] = target: T1, human CB2 receptor (hCB2); remark: listed apart in the source
[4] = target: T1, human CB2 receptor (hCB2); remark: listed apart in the source
[5] = target: T1, human CB2 receptor (hCB2); remark: listed apart in the source

CCCCCCC(C)(C)c1cc(OC)c([C@@H]2C=C(CO)[C@@H]3C[C@H]2C3(C)C)c(OC)c1 [HU308]
pEC50 [1]: 8.01 | pEC50 [2]: 7.61 | pEC50 [3]: 7.49 | pEC50 [4]: 7.79 | pEC50 [5]: 8.17
